# Ab-14 light chain CDR variants: yeast mating affinities

Data: MIT Lincoln Laboratory AlphaSeq set, Li et al. 2023, doi:10.1038/s41467-023-39022-2, as distributed in FLAb.

Target peptide (SARS-CoV-2 spike, HR2 region): PDVDLGDISGINAS

The variants keep the heavy chain, the linker and the frameworks of Ab-14 (scFv order VH, three GGGGS repeats, VL).
VH: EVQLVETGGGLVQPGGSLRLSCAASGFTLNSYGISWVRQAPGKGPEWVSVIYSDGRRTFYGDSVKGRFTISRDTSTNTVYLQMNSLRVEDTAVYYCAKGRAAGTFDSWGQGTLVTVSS
VL: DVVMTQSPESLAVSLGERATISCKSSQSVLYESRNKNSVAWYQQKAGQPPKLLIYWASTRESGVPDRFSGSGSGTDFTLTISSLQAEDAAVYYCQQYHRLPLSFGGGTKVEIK

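This is the validation round: designs drawn from the data on random variants, tested in the same kind of assay. Several design methods are mixed in this list. AlphaSeq pools MATa yeast showing the antibodies with MATalpha yeast showing the peptide. Pairs that bind mate more often; barcode pairs of the diploids are counted by sequencing. A regression on co-assayed BCL2-family reference pairs converts the normalised counts of each replicate to an apparent Kd. The assay was run in six technical replicates.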

Variants are written as CDR1, CDR2 and CDR3 of the light chain (limits as in the source). Parent: KSSQSVLYESRNKNSVA, WASTRES, QQYHRLPLS. Values are apparent Kd, the geometric mean of the replicates that gave a signal; lower means stronger binding. An entry "nd" has no value in the source: the pair was not observed among the diploids in any replicate. This suggests poor binding but is not conclusive. Values of this round are not directly comparable with the first-round values of the same sequences. Three control strains display no target. For all light chain designs, 4% of the pairings with them gave a signal, with a median of 430 nM and one signal in twenty below 38 nM, so weak values seen in few replicates may be background. Also given: how often the same scFv was detected with the empty control strains. The authors averaged sequences with at least three values out of six and counted those with two or fewer as poor binders.

CDR-L1 | CDR-L2 | CDR-L3 | Kd | detected | control signals
SLMQVGGYETNNHNSIA | DLRTRES | QQYHRLPLS | 2.8 nM | 6 of 6 | 2 of 18
KLRQVTGYESYNKNSVA | QTSTRAQ | QDYHRLPLS | 10 nM | 6 of 6 | 1 of 18
MVNGIMDHLSKQTNNVA | ETTTREE | QQYDRLPLS | 12 nM | 6 of 6 | 1 of 18
KLSFSVMLESRNKNAVA | SASTRES | QDYHRLPLS | 11 nM | 6 of 6 | 0 of 18
KISMYLNKESKAKNNVA | EMVNRES | QQYDRLPLS | 2.4 nM | 6 of 6 | 1 of 18
KSSWSDLYESRNKNSVA | DASTRES | QQYHRLPLS | 430 pM | 6 of 6 | 0 of 18
KVTTNLEHQAQRDNAIA | EADMVAA | QDYMRLPLI | 7.7 nM | 6 of 6 | 2 of 18
KVYQSHLYESRNKNSVA | NASQRES | QQYHRLPLS | 1.0 nM | 6 of 6 | 0 of 18
KSSQSMLYESRNKNSVA | WASTREN | QQYHRLPLS | 54 nM | 6 of 6 | 1 of 18
MVSQLMVWGLHHKNSIA | EAQTRLN | QQYDRLPLF | 36 nM | 1 of 6 | 0 of 18
MISQIYNVGQFAINSVA | QASTRNA | QQYDRLPLI | 36 nM | 6 of 6 | 3 of 18
KLSASQLYWSRNKNSVA | NASTRET | QQYHRLPLS | 1.2 nM | 6 of 6 | 1 of 18
KLDQSVLYESRNKNSVA | NASTRFS | QQYHRLPLS | 540 pM | 6 of 6 | 1 of 18
KVQQSWLYESRNKNSVA | NASTRCS | QQYHRLPLS | 720 pM | 6 of 6 | 2 of 18
KLDYQADQYGVQWNNVA | HADIREP | QQYFKLPLN | 4.8 nM | 6 of 6 | 2 of 18
KIHQSVLYEDRNINSVA | SASQRES | QQYHRLPLS | 1.1 nM | 6 of 6 | 1 of 18
KSSQSWLYESRNFNSVA | NASQRES | QQYHRLPLS | 3.2 nM | 6 of 6 | 0 of 18
SIQNLGMVNSVWKNSIA | DVNIVED | QQYYRLPLL | 4.0 nM | 6 of 6 | 1 of 18
MMSMGFLGGMRAKNNVA | QEETREK | QQYHRLPLI | 27 nM | 5 of 6 | 0 of 18
QLSVFELQGMGWMQSIA | QADHRTE | QQFARLPLV | nd | 0 of 6 | 0 of 18
KSSVSALYESRNKNSVA | HASTRES | QNYHRLPLS | 13 nM | 6 of 6 | 1 of 18
KFSQNVLYETRNKNSVA | WASTRES | QQYHRLPLS | 1.4 nM | 6 of 6 | 0 of 18
KVSISYLLESRNKNSVA | EAVTRES | QQYHRLPLS | 720 pM | 6 of 6 | 0 of 18
KLSMVTNHQLMSKDNVA | EMVTREN | QQYDRLPLS | 9.8 nM | 6 of 6 | 0 of 18
KSVQSVLYESLNKNSVA | WASTRES | QQYHRLCLS | nd | 0 of 6 | 0 of 18
TLYGLTNSMLKNKDNVA | EMSTREQ | QQYDRLPLA | 6.4 nM | 6 of 6 | 0 of 18
MISQLFMYGSRNWNSVA | QASTRES | QQYDRLPLI | 8.0 nM | 4 of 6 | 0 of 18
HVSESVFAQSKVKNSVA | ENSTRES | QQYDRLPLS | 670 nM | 4 of 6 | 1 of 18
KSSQSVLDESRNKNSVA | QASTRES | QQYHRLVLS | 11 nM | 5 of 6 | 0 of 18
KSSMSVQYESRNKNSVA | WASTRES | QQYHRLPLS | 110 nM | 5 of 6 | 0 of 18
KFSQSVLDESRNKNSVA | KASTRES | QQYHRLPLS | 1.4 nM | 6 of 6 | 0 of 18
KVSQSHPYEERNDNNVA | QASYRES | QQYHRLPLS | 3.0 nM | 6 of 6 | 0 of 18
KLFDRTMEEIVNQRAVA | EDNVRSV | QQYSQLPLT | 28 nM | 6 of 6 | 1 of 18
KQSQSVLYESRDKNAVA | DASTRES | QQYHRLPLS | 1.6 nM | 6 of 6 | 0 of 18
KSPWSVLYESNNKNSVA | HASTRED | QQYHRLPLS | 2.2 nM | 6 of 6 | 3 of 18
KSSPSVLYESNPKNSVA | QASQRES | QQYHRLPLS | 920 pM | 6 of 6 | 2 of 18
KLLQNTGVGMRWAQNVA | HMSTRED | QQYHRLPFV | 4.5 nM | 6 of 6 | 0 of 18
QLYAVNDLTSKNSQNVA | EQTTREN | QQYHRLPLS | 4.3 nM | 6 of 6 | 1 of 18
VSSQSVLYESRNKNSVA | AASTRES | QQYHRLPLS | 17 nM | 6 of 6 | 0 of 18
ILSDHAENQYDREDSIA | DKKERAQ | QQYAHLPLS | 5.2 nM | 6 of 6 | 0 of 18
HSSPSHLYESRNKNSVA | NASTRES | QQYHRLPLS | 1.0 nM | 6 of 6 | 2 of 18
KVSQSMLIESRNKNSVA | NASTREH | QQYERLPLS | 660 pM | 6 of 6 | 0 of 18
MLSQMWALGMKVSNSVA | QASMRFN | QQYDRLPLI | 58 nM | 2 of 6 | 0 of 18
KLSQGTYGLTGHASNVA | HDEMRWE | QQYDKLPLI | nd | 0 of 6 | 0 of 18
KITAGMRFEQKASNNIA | EVTQRSK | QQYYRLPLS | 11 nM | 6 of 6 | 1 of 18
KLSQEWLYESRNKNSVA | NASTRES | QQYHRLPLS | 1.1 nM | 6 of 6 | 1 of 18
NIYQAMHTLSQNRNNVA | DVNERGS | QQYFRLPLS | 250 pM | 6 of 6 | 0 of 18
KVSMSVNYGQRNKNSVA | DASQRES | QQYHRLPLS | 1.2 nM | 6 of 6 | 0 of 18
VIDAFNFSNGQKWNNVA | QTSVRLQ | QYYQRLPLM | 8.4 nM | 6 of 6 | 5 of 18
HMSFLTLQGQRHRNAVA | QMTTREN | QQYDRLPLS | 320 nM | 6 of 6 | 1 of 18
YVSIDAAEGRNQQSAVA | GVSYKEK | QQYYKLPLS | 4.1 nM | 6 of 6 | 1 of 18
KSDQEQLYENRMINSVA | DASLRES | QQYHRLPLS | 8.7 nM | 6 of 6 | 0 of 18
KLSQSVWYESRNKNSVA | NASTRMS | QQYHRLPLS | 1.6 nM | 6 of 6 | 0 of 18
QIDSFYQHGTDAKQAMA | DVSVRDQ | QQYSRLPLS | 520 pM | 6 of 6 | 0 of 18
KMETYSQDNRLDISAIA | EAQTIYQ | QQYARLPLS | 12 nM | 6 of 6 | 0 of 18
KLEQSELYESRNKNSVA | NASERES | QQYHRLPLS | 410 pM | 6 of 6 | 3 of 18
TLVQSVMSGSRTKNSVA | NAETRYD | QHYHRLPLS | 19 nM | 6 of 6 | 0 of 18
KLSQSSLYESTNRNSVA | WASTRES | QQYHRLPLS | 7.2 nM | 6 of 6 | 0 of 18
QMTENDHGHQAGGGSIA | DATETME | QQYMHLPLS | 4.3 nM | 6 of 6 | 0 of 18
KLSQQTLYESRNKNSVA | SASTREE | QQYHRLPLS | 460 pM | 6 of 6 | 0 of 18
KSSQSVLYESRSSNSVA | WASTRES | QQYHRLPLS | 230 nM | 3 of 6 | 0 of 18
KLSCSMEYESRNKNSVA | NASTREE | QQYHRLPLV | 500 pM | 6 of 6 | 0 of 18
KSSQSVLFESRNKNSVA | SASTRES | QQYHRLPLS | 5.7 nM | 6 of 6 | 1 of 18

From the list, the first 3 with no signal in any replicate:

{"CDR-L1": "QLSVFELQGMGWMQSIA", "CDR-L2": "QADHRTE", "CDR-L3": "QQFARLPLV", "Kd": "nd", "detected": "0 of 6", "control signals": "0 of 18"}
{"CDR-L1": "KSVQSVLYESLNKNSVA", "CDR-L2": "WASTRES", "CDR-L3": "QQYHRLCLS", "Kd": "nd", "detected": "0 of 6", "control signals": "0 of 18"}
{"CDR-L1": "KLSQGTYGLTGHASNVA", "CDR-L2": "HDEMRWE", "CDR-L3": "QQYDKLPLI", "Kd": "nd", "detected": "0 of 6", "control signals": "0 of 18"}